From PMC2680390 (Journal of medicinal chemistry, 2008)

Chains of the proteins cited; added tags and fusions are not shown. Residues count along the entry.
UniProt P03372, 311-547 C381S/C530S limits assumed: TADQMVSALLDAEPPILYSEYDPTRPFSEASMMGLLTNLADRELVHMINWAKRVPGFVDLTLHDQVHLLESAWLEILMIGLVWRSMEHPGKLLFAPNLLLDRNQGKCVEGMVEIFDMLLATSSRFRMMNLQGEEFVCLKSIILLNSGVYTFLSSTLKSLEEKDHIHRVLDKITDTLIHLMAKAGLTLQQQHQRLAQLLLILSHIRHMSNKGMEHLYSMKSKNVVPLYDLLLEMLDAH

Molecular target: ERα/SRC-3 coactivator interaction (Homo sapiens, UniProt P03372, C381S/C530S)
Test: TR-FRET CBI assay, ERα-LBD / SRC-3-NRD
Assay type: binding
Details: 1 μM estradiol, fluorescein-SRC-3-NRD 50 nM

TR-FRET Ki ERα	Compound
bind	CC(C)CNc1nc(CCc2cccc3ccccc23)cc(N(C)CC(C)C)n1 [Compound 34c, N^4-methyl-N^2,N^4-diisobutyl-6-[(2-naphthalen-1-yl-ethyl)-pyrimidin-2,4-yl]-diamine]
bind	CC(C)CNc1nc(CCc2ccccc2)cc(N(C)CC(C)C)n1 [Compound 35, N^4-dimethyl-N^2,N^4-diisobutyl-(6-phenethyl-pyrimidin-2,4-yl)-diamine]
